Reference: patent US20050049402A1 (Amgen, published 2005)

Sequences of proteins named here, by UniProt entry; tags and fusion partners are left off. Residues count along the entry.
UniProt P01375, 77-233: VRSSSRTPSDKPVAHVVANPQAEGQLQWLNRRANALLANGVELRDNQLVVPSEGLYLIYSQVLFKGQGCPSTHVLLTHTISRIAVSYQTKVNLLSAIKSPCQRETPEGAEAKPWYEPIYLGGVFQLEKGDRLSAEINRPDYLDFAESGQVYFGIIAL

What was measured:
[1] = biological target: T1, human TNFα (Tumor Necrosis Factor-alpha), soluble (human, UniProt P01375 77-233); assay: cell-based or functional assay
[2] = biological target: T1, human TNFα (Tumor Necrosis …); assay: cell-based or functional assay; remark: listed apart in the source
[3] = biological target: T1, human TNFα (Tumor Necrosis …); assay: cell-based or functional assay; remark: listed apart in the source
[4] = biological target: T1, human TNFα (Tumor Necrosis …); assay: KinExA, TNFα counted as one trimer
Description: (§1) The kinetic measurements of the anti-TNFα antibodies were evaluated using KinExA® and BIACORE® technologies. The KinExA® method involves solution-based determination of formal affinity measurements at equilibrium. To measure the binding kinetics of each human anti-TNFα antibody, two experiments in replicates of three were performed. In both experiments a known concentration of antigen was titrated and a different antibody concentration was added to each antigen titration and allowed to reach binding equilibrium. […] The results were analyzed by dual curve analysis. […] In addition, to negate the possibility of avidity effects, Fab fragments were generated by papain cleavage and the kinetic analysis was repeated (see Table 24).

[5] = biological target: T1, human TNFα (Tumor Necrosis …); assay: KinExA, TNFα counted as three monomers
Description: as §1

B1: Infliximab (antibody, V domains shown)
VH: EVKLEESGGGLVQPGGSMKLSCVASGFIFSNHWMNWVRQSPEKGLEWVAEIRSKSINSATHYAESVKGRFTISRDDSKSAVYLQMTDLRTEDTGVYYCSRNYYGSTYDYWGQGTTLTVSS
VL: DILLTQSPAILSVSPGERVSFSCRASQFVGSSIHWYQQRTNGSPRLLIKYASESMSGIPSRFSGSGSGTDFTLSINTVESEDIADYYCQQSHSWPFTFGSGTNLEVKR
With B1 the “IC50 1 hr Pre-incubation, TNF induced apoptosis in MCF-7 cells” value [1] was 0.0324 nM, the “IC50 18 hr Pre-incubation, TNF induced apoptosis in MCF-7 cells” value [1] was 0.0317 nM and the “Whole Blood IC50, TNFα-induced IL-8 production” value [2] was 0.546 nM. For the same binder, the “In vivo Potency (IC50), ALT, hTNFα/D-GalN hepatic injury in mice” value [3] was 41 nM, the “In vivo Potency (IC50), human TNFα-induced IL-6 in mice” value [3] was 43 nM and the Kd [4] was 0.0047 nM. For the same binder, the “Kd (M) High” value [4] was 6.9e-12 M, the “Kd (M) Low” value [4] was 2.93e-12 M and the Kd [5] was 0.0141 nM. For the same binder, the “Kd (M) High” value [5] was 2.07e-11 M and the “Kd (M) Low” value [5] was 8.78e-12 M.
